Reference: US20060246555A1, “Degradation of cyclic nitramines” (published 2006)

The chains behind the UniProt entries cited, without tags or fusion partners. Where a name states a change or a piece, a line headed by the entry shows the natural chain unless it says otherwise.
UniProt P36858: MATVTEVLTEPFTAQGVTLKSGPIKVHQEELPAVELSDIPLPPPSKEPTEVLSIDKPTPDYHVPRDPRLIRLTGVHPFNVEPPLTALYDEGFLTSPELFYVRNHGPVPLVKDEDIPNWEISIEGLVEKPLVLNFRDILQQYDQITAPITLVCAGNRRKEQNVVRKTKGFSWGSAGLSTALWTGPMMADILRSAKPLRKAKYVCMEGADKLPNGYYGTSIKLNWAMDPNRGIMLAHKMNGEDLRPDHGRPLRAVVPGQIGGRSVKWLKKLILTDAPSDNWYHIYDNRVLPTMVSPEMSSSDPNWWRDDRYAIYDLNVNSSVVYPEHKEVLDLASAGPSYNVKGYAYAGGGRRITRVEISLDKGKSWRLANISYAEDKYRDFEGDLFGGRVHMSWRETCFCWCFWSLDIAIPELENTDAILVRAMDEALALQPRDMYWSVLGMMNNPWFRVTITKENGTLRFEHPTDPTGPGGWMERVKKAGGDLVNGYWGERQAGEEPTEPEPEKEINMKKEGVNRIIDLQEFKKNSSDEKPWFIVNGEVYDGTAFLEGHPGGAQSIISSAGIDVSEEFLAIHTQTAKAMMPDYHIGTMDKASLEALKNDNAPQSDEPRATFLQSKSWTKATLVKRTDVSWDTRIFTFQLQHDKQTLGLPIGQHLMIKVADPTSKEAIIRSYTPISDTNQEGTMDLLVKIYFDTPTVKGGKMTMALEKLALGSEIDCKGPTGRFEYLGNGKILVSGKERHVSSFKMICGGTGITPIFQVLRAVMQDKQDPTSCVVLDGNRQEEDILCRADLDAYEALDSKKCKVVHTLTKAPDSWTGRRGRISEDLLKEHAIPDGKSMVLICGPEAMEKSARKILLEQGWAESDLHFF

Key:
[1] = Photolysis of RDX in aqueous solution at 350 nm; conditions: for product amount, μmole ± SD: RDX (0.46 μmole) after 16 h of photolysis at 350 nm in water; for C-content % / N-content %: RDX after 16 h of photolysis at 350 nm
[2] = test system: Diaphorase (EC 1.8.1.4) from Clostridium kluyveri; assay: RDX biotransformation assay with diaphorase; conditions: for Concentration of Reactants/metabolites: RDX transformation, pH 7.0, 27° C., anaerobic, NADH; for % Nitrogen recovery: of total nitrogen mass in the transformed RDX (78 μmole)
[3] = target: Aspergillus niger NAD(P)H: Nitrate oxidoreductase (EC 1.6.6.2) (Aspergillus niger, UniProt P36858); assay: Nitrate reductase catalyzed RDX transformation; conditions: for Concentration of Reactants/metabolites: RDX transformation, after 150 minutes of reaction, anaerobic, NADPH; for % Nitrogen recovery: of total nitrogen mass in the transformed RDX (86 μmole)
[4] = Alkaline hydrolysis of cyclic nitramines in aqueous solution
[5] = higher than RDX; cited from earlier work
[6] = test system: Rhodococcus sp. strain DN22; assay: Aerobic degradation of RDX with Rhodococcus sp. strain DN22; conditions: pH 7

In the case of O=CO, the “product amount, μmole ± SD” value [1] is reported as 0.126 ± 0.026 µmol and the C-content % [1] is reported as 9.1%.

With Cc1cc2nc3c(=O)[nH]c(=O)nc-3n(C[C@H](O)[C@H](O)[C@H](O)COP(=O)(O)O)c2cc1C the “maximum RDX transformation activity of reconstituted deflavo enzyme” value ([2]; FMN concentration of 200 μM) was 85% and the “RDX transformation rate of free FMN” value ([2]; commercially available FMN in free form, NADH as electron donor, vs diaphorase-bound FMN) was “comparatively lower”.

In the case of Ammonium ion, the “Concentration of Reactants/metabolites” value [2] is reported as 62.0 µmol, the “% Nitrogen recovery” value [2] is reported as 13.0% and the “% Nitrogen recovery” value ([2]; listed as ammonium) is reported as 13%. The “Concentration of Reactants/metabolites” value ([3]; pH 7.0, 30° C.) was 88 µmol and the “% Nitrogen recovery” value [3] was 16.98%.

With NADPH the “Concentration of Reactants/metabolites” value ([3]; pH 7.0, 30° C.) was 280 µmol.

With Nitrite the “Concentration of Reactants/metabolites” value [2] was 69.0 µmol, the “% Nitrogen recovery” value [2] was 15.0% and the “% Nitrogen recovery” value ([2]; listed as nitrite) was 15%.

In the case of NADH, the “Concentration of Reactants/metabolites” value [2] is reported as 110.0 µmol.

For [N-]=[N+]=O, the “Concentration of Reactants/metabolites” value [2] was 129.0 µmol, the “Concentration of Reactants/metabolites” value ([2]; listed as N2O) was 129 µmol and the “% Nitrogen recovery” value [2] was 55.0%. For the same compound, the “% Nitrogen recovery” value ([2]; listed as N2O) was 55%, the “Concentration of Reactants/metabolites” value ([3]; pH 7.0, 30° C.) was 148 µmol and the “% Nitrogen recovery” value [3] was 57.37%. The “product amount, μmole ± SD” value [1] was 0.160 ± 0.009 µmol, the N-content % [1] was 11.6% and the “half-life of N2O formation” value ([4]; RDX hydrolysis, pH 10) was 91 h. The “N2O present as share of total nitrous oxide expected to form” value ([4]; t=316 h, pH 10) was 91%.

For “pentahydro-3,5-dinitro-1,3,5-triazacyclohex-1-ene”, the “rate of hydrolysis relative to RDX” value [5] is listed as 5 orders of magnitude.

With O=CNCN[N+](=O)[O-] the stability to light ([1]; 350 nm) was “degraded slowly”, the “product amount, μmole ± SD” value [1] was 0.205 ± 0.019 µmol and the N-content % [1] was 22.2%. The C-content % ([1]; listed as O2NNHCH2NHCHO (V)) was 31.5%, the C-content % ([1]; listed as O2NNHCH2NHCHO(V)) was 29.6% and the “persistence in incubation mixtures with strain DN22” value [6] was “persist indefinitely”. The “formation of 4-NDAB” value ([4]; pH 10, first three hours, RDX hydrolysis) was 0.04 pmol.

In the case of formamide, the “fraction converted on incubation with nitrate reductase” value ([3]; 50 μM, with NADPH, one hour, pH 7.0, 30° C., formamide to HCHO and NH4+, hydrazine to NH4+) is reported as “roughly 50%”, the “product amount, μmole ± SD” value [1] is reported as 0.436 (a) μmole and the C-content % [1] is reported as 31.5%. It also gave a N-content % [1] of 15.7% and a C-content % ([1]; listed as NH2CHO) of 31.9%.

In the case of nitrate, the “type of inhibition of nitrate reductase catalyzed RDX transformation” value ([3]; Lineweaver-Burk's plots, 0, 20, 100 μM nitrate) is reported as “competitive inhibitor”.
